{"source": "patent US8388931B2", "about": "“99m Tc-labeled triphenylphosphonium derivative contrasting agents and molecular probes for early detection and imaging of breast tumors” (priority 2008, dated 2013)", "key": {"[1]": {"conditions": "urine sample 30 min after intravenous injection; radioHPLC", "description": "Rats (n=3) were sacrificed at 1, 3, 5, 10, 30 and 60 min after injection and the distribution of radioactivity in different tissues was determined by gamma well counting with an energy window of 140±15 keV. The biodistribution data is expressed in terms of percentage injected dosage per gram (% ID/g) with mean±standard deviation. Urine samples were collected from the bladder at 30 min after injection, and were analyzed by radioHPLC to determine the presence of metabolic derivatives of the radiotracer. […] Specifically, anterior planar whole-body dynamic images were acquired on an XRT gamma camera (General Electric) using a high-resolution medium energy parallel-hole collimator at one frame per minute for 60 min, with 512×512 matrix, and an energy window of 140±15 keV."}, "[2]": {"experiment": "Comparative study: myocardial and hepatic uptake of 99mTc-MIBI versus 99mTc-Mito10-MAG3", "type": "in vivo, rats", "description": "^99mTc-MIBI of clinical formulation was purchased from Bristol Myers Squibb. At 48 hours after the breast tumors were first identified using ^99mTc-Mito10-MAG3, the same rats were injected with ^99mTc-MIBI (1 mCi per rat) via the tail vein. At this time, the radioactivity from the ^99mTc-Mito10-MAG3 injection already had cleared to background from the animals due to physical decay and excretion. Dynamic images were acquired in identical fashion following 99mTc-MIBI injection.\nIn a comparative study, the myocardial uptake of ^99mTc-MIBI peaked at 2.70±0.4% ID/g within minutes after injection, and remained above 2.41±0.3% ID/g for at least 90 min. Comparatively, the myocardial uptake level of ^99mTc-Mito10-MAG 3 is 10, 40, and 120 fold lower than the uptake level of ^99mTc-MIBI at 3, 10 and 30 min after injection. The hepatic uptake of ^99mTc-MIBI was at 0.37±0.14% ID/g at 30 min after injection."}, "[3]": {"system": "DMBA-induced breast carcinoma", "experiment": "In vivo gamma camera imaging of DMBA-induced breast carcinoma in rats", "parameters": "species or system rats (female Sprague Dawley)", "description": "The animal protocol was approved by institutional IACUC review and followed NIH guidelines. The rat model of DMBA-induced breast carcinoma was used.\nAs an initial feasibility study, rats were induced with 65 mg/kg DMBA dissolved in sesame oil via a single oral gavage to the stomach. Eleven weeks later, three rats with established breast carcinoma (0.5 to 1.9 cm in diameter) were imaged after ^99mTc-Mito10-MAG3 injection (10 μg, 1 mCi) using a constant rate infusion pump for a total injection volume of 150 μl over a period of 35 min. Static images were acquired on a GE XRT gamma camera using a high-resolution parallel-hole collimator, 512×512 matrix size, 22.5×22.5 cm field of view, 140±15 keV energy window, 100 k counts. Unexpectedly, apart from the established palpable carcinomas, additional small (millimeter size) tumors were discovered by this imaging technique in the same animals. This finding promoted a longitudinal study to investigate the early detection of neoplastic growth using ^99mTc-Mito10-MAG3.\nSix 48-day-old female rats were injected with 65 mg/kg DMBA. At each week after DMBA induction, the rats were imaged using the following protocol. Each rat was anesthetized with 1.6% isoflurane in room air supplemented with oxygen. The rat was immobilized in a prone position on the surface of the gamma camera. ^99mTc-Mito10-MAG3 (10 μg, 1 mCi) was injected via the tail vein using a constant rate infusion pump for a total injection volume of 150 μl over a period of 35 min. Dynamic images were continuously acquired at one frame per min for 90 min using the imaging parameters set forth hereinabove. The weekly imaging regiment was continued for all six rats until palpable tumors became detectable, which typically takes place between seven to nine weeks after the administration of DMBA. Due to the relatively short physical half-life of ^99mTc (6 hr), no residual signal, therefore, no cross-contamination is detectable from the previous injection the week before.\n^99mTc-MIBI of clinical formulation was purchased from Bristol Myers Squibb. […] At this time, the radioactivity from the ^99mTc-Mito10-MAG3 injection already had cleared to background from the animals due to physical decay and excretion. […]\nImaging data analysis was carried out using an inbuilt software, by carefully drawing a region of interest (ROI) on the tumor site to determine the radioactivity counts in the ROI. […] Radioactivity counts were determined in each ROI. Tumor-to-normal and tumor-to-muscle ratios were calculated as the count ratio between the two ROIs.\nThe rats were sacrificed by CO2 asphyxiation and the number and location of the mammary tumors were recorded at necropsy. The tumors were dissected, with the diameter and weight measured and documented. […]"}}, "note": "“Also recorded” adds a separate entry of the source.", "data": [{"smiles": "CC(=O)[S+]1CC(=O)[N]2CC(=O)[N]3CC(=O)[N](CC(=O)NCCCCCCCCCC[P+](c4ccccc4)(c4ccccc4)c4ccccc4)[99Tc]321=[O].[Br-]", "note": "(centres unmarked) [^99mTc-Mito10-MAG3]", "values": [{"measurement": "radioactive metabolites in urine", "setting": "[1]", "value": "detected in urine samples; also recorded: radioactive metabolites are present"}, {"measurement": "myocardial uptake level, fold lower than 99mTc-MIBI", "setting": "[2]; 3 min after injection", "value": 10, "unit": "fold"}, {"measurement": "myocardial uptake level, fold lower than 99mTc-MIBI", "setting": "[2]; 10 min after injection", "value": 40, "unit": "fold"}, {"measurement": "myocardial uptake level, fold lower than 99mTc-MIBI", "setting": "[2]; 30 min after injection", "value": 120, "unit": "fold"}, {"measurement": "tumor-to-non-tumor ratio compared with 99mTc-MIBI", "setting": "[3]; DMBA-induced breast carcinoma in rats", "value": "similar"}, {"measurement": "tumor-to-normal ratio", "setting": "[3]; ROI count ratio tumor vs contralateral normal mammary gland, longitudinal experiment, at the time of detection", "value": "2.39±0.77"}, {"measurement": "tumor-to-muscle ratio", "setting": "[3]; ROI count ratio tumor vs thigh muscle, longitudinal experiment, at the time of detection", "value": "6.61±1.74"}, {"measurement": "detection of tumors as focal radioactivity uptake relative to palpation", "setting": "[3]; longitudinal experiment, four tumors in mammary glands a and b, all four detected", "value": "at least one week earlier than by palpation"}]}]}
